Laboratory results reported in BindingDB's records for doi:10.1038/nsmb704 (University of California Irvine, 2004).

Chains of the proteins cited; added tags and fusions are not shown. Residues count along the entry.
UniProt P29473, 2-1205 N368D limits assumed: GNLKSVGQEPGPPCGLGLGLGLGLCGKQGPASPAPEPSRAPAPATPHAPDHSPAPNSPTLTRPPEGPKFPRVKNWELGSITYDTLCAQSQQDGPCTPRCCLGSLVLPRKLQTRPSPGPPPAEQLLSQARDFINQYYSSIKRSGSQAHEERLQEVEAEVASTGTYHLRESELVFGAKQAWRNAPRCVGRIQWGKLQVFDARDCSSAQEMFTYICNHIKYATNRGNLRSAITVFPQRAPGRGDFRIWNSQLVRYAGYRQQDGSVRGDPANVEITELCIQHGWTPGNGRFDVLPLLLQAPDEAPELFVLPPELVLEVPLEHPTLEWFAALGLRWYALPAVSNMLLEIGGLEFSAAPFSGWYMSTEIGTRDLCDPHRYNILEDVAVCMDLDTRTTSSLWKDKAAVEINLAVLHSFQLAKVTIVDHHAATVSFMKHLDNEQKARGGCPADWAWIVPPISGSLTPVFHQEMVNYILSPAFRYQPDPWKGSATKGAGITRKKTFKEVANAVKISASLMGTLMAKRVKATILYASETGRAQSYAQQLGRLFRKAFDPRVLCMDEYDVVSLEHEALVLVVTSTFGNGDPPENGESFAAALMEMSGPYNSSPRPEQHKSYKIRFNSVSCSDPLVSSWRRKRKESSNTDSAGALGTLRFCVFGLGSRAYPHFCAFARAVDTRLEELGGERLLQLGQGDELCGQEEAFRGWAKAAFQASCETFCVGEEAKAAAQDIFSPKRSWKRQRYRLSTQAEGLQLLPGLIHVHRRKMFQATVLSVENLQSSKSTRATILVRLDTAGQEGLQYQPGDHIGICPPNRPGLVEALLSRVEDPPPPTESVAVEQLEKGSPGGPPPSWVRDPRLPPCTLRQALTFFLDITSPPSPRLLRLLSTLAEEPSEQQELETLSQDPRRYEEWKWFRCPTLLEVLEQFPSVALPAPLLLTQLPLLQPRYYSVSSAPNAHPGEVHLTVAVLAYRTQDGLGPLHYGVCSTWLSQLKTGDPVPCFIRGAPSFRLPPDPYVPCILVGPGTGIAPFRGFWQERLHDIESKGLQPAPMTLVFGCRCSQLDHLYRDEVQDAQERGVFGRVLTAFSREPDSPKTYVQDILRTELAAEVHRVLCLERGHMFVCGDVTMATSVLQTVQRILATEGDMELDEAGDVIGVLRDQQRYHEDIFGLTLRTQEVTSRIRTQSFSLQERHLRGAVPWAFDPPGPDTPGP

Target: Nitric oxide synthase, endothelial [N368D] (Bos taurus, UniProt P29473, N368D)
Test: NOS Enzyme Inhibition Assay
Settings: pH 7.5; 30 °C

Q: How did the Ki turn out when `NC(=O)[C@@H]1C[C@@H](NC(=O)[C@@H](N)CCC/N=C(\N)N[N+](=O)[O-])CN1` [JMC522060 Compound 3] was run?
A: Its Ki is 5.1 µM.
